Measurements: PubChem BioAssay AID1851 (National Center for Advancing Translational Sciences (NCATS), 2009)
The hits were mostly taken out for another list; the other results follow. Inconclusive results are not listed. The source made the active and inactive calls. Calls come from the whole dose curve; as a rule, active = well fitted curve in the direction sought with a large enough effect; inconclusive = small, poorly fitted or top-dose-only effect, or effect the other way; inactive = no such curve, though single readings can be large or run the other way.

By UniProt entry, the sequences of proteins in these tests, tags left out.
UniProt P11712, whole entry, looked up: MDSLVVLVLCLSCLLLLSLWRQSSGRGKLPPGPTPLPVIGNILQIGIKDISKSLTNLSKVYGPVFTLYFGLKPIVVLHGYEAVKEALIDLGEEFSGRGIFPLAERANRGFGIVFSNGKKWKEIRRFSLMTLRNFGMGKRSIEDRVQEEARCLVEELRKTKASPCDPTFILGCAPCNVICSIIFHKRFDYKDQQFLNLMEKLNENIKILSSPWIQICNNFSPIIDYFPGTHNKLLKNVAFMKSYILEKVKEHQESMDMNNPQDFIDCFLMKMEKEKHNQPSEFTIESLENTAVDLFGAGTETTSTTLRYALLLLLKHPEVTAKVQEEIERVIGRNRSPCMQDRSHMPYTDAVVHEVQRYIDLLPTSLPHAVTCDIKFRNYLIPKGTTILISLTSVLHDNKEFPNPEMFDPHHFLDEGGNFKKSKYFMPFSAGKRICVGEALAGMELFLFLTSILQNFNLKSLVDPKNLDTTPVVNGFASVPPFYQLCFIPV

Target: Cytochrome P450 2C9 (Homo sapiens) (UniProt P11712)
Experiment: Cytochrome panel assay with activity outcomes
Conditions: recombinant CYP, pro-luciferin dealkylation, luminescence, p450-cyp2c9; series mostly up to 57.1 µM; activity, negative = inhibition: at the top concentration
% is set by controls: 0 for no effect and ±100 for the full control effect.

| Structure (SMILES) | activity, negative = inhibition | AC50 |
| --- | --- | --- |
| O=C(c1cnccn1)N1CCC[C@@]2(CCN(c3ccccc3)C2)C1 | inactive: -2.17% |  |
| O=C(c1csnn1)N1CCC[C@@]2(CCN(c3ccccn3)C2)C1 | inactive: -0.623% |  |
| COc1cccc(Cn2c(=O)cnc3cnc(OCc4ccccc4)nc32)c1 | inactive: -21.4% |  |
| O=C(c1cnccn1)N1CCC[C@@]2(CCN(Cc3nccs3)C2)C1 | inactive: 0.582% |  |
| COc1ccc(NC(=O)N2CC[C@@]3(CCCN(C(=O)c4csnn4)C3)C2)cc1 | inactive: 4.14% |  |
| CC(C)CN1CCC2(CC1)CCN(C(=O)c1csnn1)CC2 | inactive: 7.55% |  |
| O=C(c1csnn1)N1CCC[C@@]2(CCN(c3ccncc3)C2)C1 | inactive: -8.62% |  |
| O=C(c1ccco1)N1CCC2(CC1)CCN(c1cccc(-c3ccccc3)c1)CC2 | inactive: -29.1% |  |
| C#C[C@]1(O)CC[C@@H]2[C@H]3CCC4=Cc5oncc5C[C@]4(C)[C@@H]3CC[C@@]21C |  | active: 1260 nM |
| COc1ccc(-n2c(=O)c(-c3cccs3)nc3cnc(Nc4ccccc4)nc32)cc1 | inactive: 18.1% |  |
| O=C(Nc1cccc(F)c1)N1CC[C@@]2(CCCN(C(=O)c3ccco3)C2)C1 | inactive: -5.03% |  |
| N#CCCn1c(=O)c(-c2ccc(Cl)cc2)nc2cnc(OCc3ccccc3)nc21 | inactive: -15.1% |  |
| CC(C)NC(=O)N1CCC2(CC1)CCN(C(=O)c1csnn1)CC2 | inactive: 1.81% |  |
| C#C[C@]1(O)CC[C@H]2[C@H]3CCC4=Cc5oncc5C[C@]4(C)[C@@H]3CC[C@]21C | inactive: 10.1% |  |
| O=C(c1csnn1)N1CCC2(CC1)CCN(C(c1ccccc1)c1ccccc1)CC2 | inactive: -19.1% |  |
| COc1ccccc1CN1CCCC2(CCN(C(=O)c3csnn3)CC2)C1 | inactive: 12.8% |  |
| Cc1nc2cnc(Oc3ccccc3)nc2n(CCC#N)c1=O | inactive: -23.8% |  |
| O=C(Nc1cccc(F)c1)N1CC[C@@]2(CCCN(S(=O)(=O)c3ccccc3)C2)C1 | inactive: -27.9% |  |
| COCCn1c(=O)c(CCc2ccccc2)nc2cncnc21 | inactive: -27.4% |  |
| COCCn1c(=O)c(-c2cccc(C#N)c2)nc2cnc(Nc3ccccc3)nc21 | inactive: -11.8% |  |
| Cn1c(=O)cnc2cnc(Oc3ccccc3)nc21 | inactive: -8.83% |  |
| COc1ccccc1CN1CCC2(CC1)CCN(C(=O)c1csnn1)CC2 | inactive: -4.34% |  |
| O=C(Oc1ccccc1)N1CCC2(CCCN(c3cccc(-c4ccccc4)c3)C2)CC1 | inactive: -8.86% |  |
| COCCn1c(=O)c(-c2ccccc2)nc2cncnc21 | inactive: -4.04% |  |
| O=C(c1csnn1)N1CCC[C@@]2(CCN(c3ncccn3)C2)C1 | inactive: -10.7% |  |
| N#Cc1ccc(CN2CCC3(CC2)CCN(C(=O)c2csnn2)CC3)cc1 | inactive: 10.6% |  |
| COC(=O)N1CCC2(CC1)CN(c1cccc(-c3ccccc3)c1)C2 | inactive: 2.16% |  |
